Measured values taken from PubChem BioAssay AID504842 (National Center for Advancing Translational Sciences (NCATS), 2011).
The entries are a selection whose mix differs from that of the whole data set. Active and inactive are the calls of the source. Calls come from the whole dose curve; as a rule, active = well fitted inhibition curve with a large enough effect; inconclusive = small, poorly fitted or top-dose-only effect; inactive = flat fitted curve, though single readings scatter.
% is set by controls: 0 for no effect and ±100 for the full control effect.
Note: nearly all actives have a fitted effect of over 80% in size.

What follows are compounds tested on Chaperonin Mm-Cpn (Methanococcus maripaludis) (assay: Inhibitors of TCP-1 ring complex (TRiC) of Methanococcus maripaludis (MmCpn): qHTS). Conditions: purified Mm-Cpn ATPase, ADP Transcreener TR-FRET; at 76.9 µM (top of the series).
Text: The eukaryotic chaperonin TRiC (for TCP-1 ring complex) is an essential and conserved chaperone required for the folding and activation of 10-15% of the proteins encoded by the human genome. […] The TRiC complex consist of two stacked 7-9 membered rings, each containing a central cavity. Substrates are folded within the cavity in an ATP-dependent manner. TRiC is a complex of eight different, essential proteins. As each of the genes encoding the eight subunits is essential for cell viability and no protocol has been developed to over-express this enzyme to high levels. […] This assay applied the time resolved fluorescence resonance energy transfer (TR-FRET) principle. […]
Purified Mm-CPN was supplied by the laboratory of Dr. Judith Frydman. […] Plates were read on the PerkinElmer EnVision plate reader using Excitation = 320 nm and Emission = […], 665 nm. Protocol- 1.Dispense 1.5ul per well of working [Mm-CPN] = 50nM (or 75 ng / well) 2.Spin plate at 1000 rpm for 30 seconds 3.23nl of compound transferred per well 4.Incubate at 37degC for 10 minutes 5.Dispense 1.5ul per well of working [ATP] = 20uM 6.Incubate at 37degC for 30 minutes 7.Dispense 3ul per well of Anti-ADP Cryptate / ADP-d2 mix (prepared as instructed by Cisbio) 8.Incubate at ambient for 30 minutes 9.Read using EnVision
CCC(=O)N(c1ccccc1)C1(COC)CCN(CCn2nnn(CC)c2=O)CC1 was tested, and the activity, negative = inhibition was inactive: 0.223%. For CCC(=O)N(c1ccccc1)C1(COC)CCN(CCc2cccs2)CC1, the activity, negative = inhibition was inactive: 2.12%.
